Laboratory results: patent US7179818B2, “Substituted aminoquinuclidine compounds” (Ortho-McNeil Pharmaceutical, Inc., priority 2002, dated 2007)

The chains behind the UniProt entries cited, without tags or fusion partners. Where a name states a change or a piece, a line headed by the entry shows the natural chain unless it says otherwise.
UniProt P33533, whole entry: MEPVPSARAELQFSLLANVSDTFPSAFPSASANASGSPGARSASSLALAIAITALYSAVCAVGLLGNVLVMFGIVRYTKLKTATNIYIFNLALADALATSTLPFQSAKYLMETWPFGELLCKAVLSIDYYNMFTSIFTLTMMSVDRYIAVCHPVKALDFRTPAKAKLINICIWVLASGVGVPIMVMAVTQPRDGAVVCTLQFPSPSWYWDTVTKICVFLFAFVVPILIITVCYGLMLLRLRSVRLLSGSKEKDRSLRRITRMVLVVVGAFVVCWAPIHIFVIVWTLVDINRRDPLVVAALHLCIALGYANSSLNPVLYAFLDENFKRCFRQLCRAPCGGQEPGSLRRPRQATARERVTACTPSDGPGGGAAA
UniProt P33535, whole entry: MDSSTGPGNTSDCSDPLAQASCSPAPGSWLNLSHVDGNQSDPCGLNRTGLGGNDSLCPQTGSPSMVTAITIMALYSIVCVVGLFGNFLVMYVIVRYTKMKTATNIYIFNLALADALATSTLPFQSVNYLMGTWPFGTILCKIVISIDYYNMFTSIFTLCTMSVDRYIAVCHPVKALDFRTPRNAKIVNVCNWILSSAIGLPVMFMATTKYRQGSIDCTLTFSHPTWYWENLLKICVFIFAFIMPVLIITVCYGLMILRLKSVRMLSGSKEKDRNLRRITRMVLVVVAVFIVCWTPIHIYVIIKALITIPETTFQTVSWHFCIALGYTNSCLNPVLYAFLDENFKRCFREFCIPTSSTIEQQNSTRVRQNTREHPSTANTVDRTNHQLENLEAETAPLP

Columns and labels:
δ-opioid receptor = target: T1, δ-opioid receptor (Rattus norvegicus, UniProt P33533); experiment: Rat brain δ-opioid receptor binding assay ([3H]DPDPE); conditions: rat forebrain membranes, 25° C.
T1 construct: from tissue; host or cells: rat (Wistar) forebrain homogenate, particulate preparation
Method: (§1) Male, Wistar rats (150–250 g, VAF, Charles River, Kingston, N.Y.) are killed by cervical dislocation, and their brains removed and placed immediately in ice cold Tris HCl buffer (50 mM, pH 7.4). The forebrains are separated from the remainder of the brain by a coronal transection, beginning dorsally at the colliculi and passing ventrally through the midbrain-pontine junction. After dissection, the forebrains are homogenized in Tris buffer in a Teflon®-glass homogenizer. The homogenate is diluted to a concentration of 1 g of forebrain tissue per 100 mL Tris buffer and centrifuged at 39,000×G for 10 min. The pellet is resuspended in the same volume of Tris buffer with several brief pulses from a Polytron homogenizer. This particulate preparation is used for the δ-opioid binding assays. Following incubation with the δ-selective peptide ligand [^3H]DPDPE at 25° C., the tube contents are filtered through Whatman GF/B filter sheets on a Brandel cell harvester. The tubes and filters are rinsed three times with 4 mL of 10 mM HEPES (pH 7.4), and the radioactivity associated with the filter circles determined using Formula 989 scintillation fluid (New England Nuclear, Boston, Mass.) in a scintillation counter.
The data are used to calculate either the % inhibition compared to control binding (when only a single concentration of test compound is evaluated) or a Ki value (when a range of concentrations are tested).
% Inhibition was calculated as: […]
(§2) Ki value is calculated using the LIGAND (Munson, P. J. and Rodbard, D., Anal. Biochem. 107: 220–239, 1980) data analysis program.

μ-opioid receptor = target: T2, μ-opioid receptor (Rattus norvegicus, UniProt P33535); experiment: Rat brain μ-opioid receptor binding assay ([3H]DAMGO); conditions: rat forebrain membranes, 25° C.
T2 construct: from tissue; host or cells: rat (Wistar) forebrain homogenate, particulate preparation
Method: as §1, with “Chades” for “Charles”, “dislocation” for “dislocation,”, “μ-opioid” for “δ-opioid”, “Following incubation with the δ-selective peptide ligand [^3H]DPDPE at 25° C., the tube contents are filtered through Whatman GF/B filter sheets on a Brandel cell harvester.” left out, “7.4)” for “7.4),”
The data are used to calculate either the % inhibition compared to control binding (when only a single concentration of test compound is evaluated) or a Ki value (when a range of concentrations is tested).
% Inhibition is calculated as: […]
as §2

Substance | Ki (δ-opioid receptor) | Ki (μ-opioid receptor)
N,N-Diethyl-4-[(2-methoxyphenyl)-(1-azabicyclo[2.2.2]octan-3-amino)]benzamide Hydrochloride [Compound 5, N,N-Diethyl-4-[(2-methoxyphenyl)-(1-azabicyclo[2.2.2]octan-3-amino)]benzamide Hydrochloride [1:1]] | 0.29 µM | 
N,N-Diethyl-4-[(3-chlorophenyl)-(1-azabicyclo[2.2.2]octan-3-amino)]benzamide Hydrochloride [Compound 6, N,N-Diethyl-4-[(3-chlorophenyl)-(1-azabicyclo[2.2.2]octan-3-amino)]benzamide Hydrochloride [1:1]] | 0.171 µM | 
N,N-Diethyl-4-[(3-hydoxyphenyl)-(1-azabicyclo[2.2.2]octan-3-amino)]benzamide Fumarate Hydrate[1:1:0.5] [Compound 3] | 0.003 µM | 0.16 µM
N,N-Diethyl-4-[(3-methoxyphenyl)-(1-azabicyclo[2.2.2]octan-3-amino)]benzamide Fumarate Hydrate[1:1:0.5] [Compound 2] | 0.115 µM | 
N,N-Diethyl-4-[(3-thiomethylphenyl)-(trans-2-methyl-1-azabicyclo[2.2.2]octan-3-amino)]benzamide Fumarate [Compound 10, N,N-Diethyl-4-[(3-thiomethylphenyl)-(trans-2-methyl-1-azabicyclo[2.2.2]octan-3-amino)]benzamide Fumarate [1:1.5]] | 0.012 µM | 2.77 µM
N,N-Diethyl-4-[phenyl-(1-azabicyclo[2.2.2]octan-3-amino)]benzamide Fumarate [Compound 1, N,N-Diethyl-4-[phenyl-(1-azabicyclo[2.2.2]octan-3-amino)]benzamide Fumarate [1:1]] | 0.098 µM | 10 µM
N,N-Diethyl-4-[phenyl-(cis-2-methyl-1-azabicyclo[2.2.2]octan-3-amino)]benzamide [Compound 9] | 0.019 µM | 3.04 µM
